Results from article PMC9798557 (Journal of Hematology & Oncology, 2022).

By UniProt entry, the sequences of proteins in these tests, tags left out. Residues count along the entry.
UniProt P28907, 45-300: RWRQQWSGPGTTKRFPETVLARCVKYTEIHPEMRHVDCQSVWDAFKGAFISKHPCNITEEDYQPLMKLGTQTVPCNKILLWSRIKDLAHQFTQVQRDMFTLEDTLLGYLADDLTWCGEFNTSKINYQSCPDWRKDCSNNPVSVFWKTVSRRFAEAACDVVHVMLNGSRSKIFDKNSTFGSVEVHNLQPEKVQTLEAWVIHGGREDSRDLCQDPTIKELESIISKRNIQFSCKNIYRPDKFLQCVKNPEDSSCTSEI

Biological target: T1, human CD38 (Homo sapiens, UniProt P28907)
T1 construct: CD38, human; Used for both the SPR and the cryo-EM complex; probably a soluble extracellular form
Test: SPR; Biacore 8 K
Conditions: both partners purified

B1: FTL004, humanized IgG1κ anti-CD38 mAb (antibody, V domains shown)
VH: QVQLVQSGSELKKPGASVKVSCKASGYTFTDYNVHWIRQAPGQGLEWIGYFYPRNGATHYNQKFTGRAVLSADTSVSTAYLQISSLKAEDTAVYFCARGETPGTFPYWGQGTLVTVSS
VL: DIVLTQSPASLAVSPGQRATITCRASESVDNFGITFMHWYQQKPGQPPKLLIYRASNLESGVPARFSGSGSRTDFTLTINPVEANDTANYYCQQSSKDPRTFGQGTKLEIK
B1 gave a Kd of 2.55 nM.
